Values quoted from earlier work in publication PMC4266533, “Kinetics of the early events of GPCR signalling” (Febs Letters, 2014).

Protein sequences, listed by entry. Tags and fused reporters are not part of them.
UniProt P20789, whole entry: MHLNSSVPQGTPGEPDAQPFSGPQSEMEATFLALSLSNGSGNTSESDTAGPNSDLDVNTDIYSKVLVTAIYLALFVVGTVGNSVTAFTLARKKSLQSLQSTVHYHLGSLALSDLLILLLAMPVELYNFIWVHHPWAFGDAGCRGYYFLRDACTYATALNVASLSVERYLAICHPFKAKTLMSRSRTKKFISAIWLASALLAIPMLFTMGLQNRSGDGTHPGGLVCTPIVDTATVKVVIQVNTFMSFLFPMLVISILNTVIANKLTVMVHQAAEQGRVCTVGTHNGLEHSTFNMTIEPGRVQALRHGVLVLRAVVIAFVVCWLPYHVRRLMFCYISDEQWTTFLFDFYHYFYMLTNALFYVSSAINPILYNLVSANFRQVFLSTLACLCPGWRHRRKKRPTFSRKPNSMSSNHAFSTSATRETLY

Molecular target: Neurotensin (Homo sapiens)
Conditions: cited from earlier work

**Q.** With NTS1 (from UniProt P20789) as the substance, how does the pKd read?
**A.** Its pKd is 9.00.

pKd: −log10 of the molar value.
